Sequences of proteins named here, by UniProt entry; tags and fusion partners are left off. Residues count along the entry.
UniProt P43220, 24-463 limits assumed: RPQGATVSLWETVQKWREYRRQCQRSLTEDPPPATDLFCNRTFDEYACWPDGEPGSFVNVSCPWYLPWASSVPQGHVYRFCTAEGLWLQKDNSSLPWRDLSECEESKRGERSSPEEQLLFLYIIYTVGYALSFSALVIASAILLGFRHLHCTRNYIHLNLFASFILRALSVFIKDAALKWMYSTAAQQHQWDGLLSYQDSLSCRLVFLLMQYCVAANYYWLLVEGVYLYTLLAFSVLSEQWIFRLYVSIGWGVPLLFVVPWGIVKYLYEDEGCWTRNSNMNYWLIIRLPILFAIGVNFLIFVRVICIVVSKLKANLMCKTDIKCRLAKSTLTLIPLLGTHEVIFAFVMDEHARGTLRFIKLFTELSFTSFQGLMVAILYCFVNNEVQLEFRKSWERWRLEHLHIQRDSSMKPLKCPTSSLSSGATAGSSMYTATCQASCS

In patent US11702404B2, “GLP-1R modulating compounds” (priority 2019, dated 2023):

Key:
GLP-1R = GLP-1R (Homo sapiens, UniProt P43220); assay: GLP-1R activation: cAMP increase in CHO cells stably expressing GLP-1R; type: cell-based; conditions: 10 point dose response, 30 minutes incubation
[1] = Microsomal stability, human liver microsomes (predicted hepatic clearance); conditions: predicted from in vitro microsomal stability data

SMILES	EC50 (GLP-1R) [nM]	Predicted Hepatic Clearance (Pred. Cl.) [1] [mL/min/kg]
N#Cc1ccc(COc2cccc(-c3cc(F)c(Cc4nc5ccc(C(=O)O)cc5n4CC4CCC4(F)F)cc3F)n2)c(F)c1 (centres unmarked)	2.14	1.83
CC1(Cn2c(Cc3ccc(-c4cccc(OCc5ccc(C#N)cc5F)n4)cc3F)nc3ccc(C(=O)NS(=O)(=O)C4CC4)nc32)CC1	72	<1.83
COCCn1c(Cc2cc(F)c(-c3cccc(OCc4ccc(C#N)cc4F)n3)cc2F)nc2ccc(OC(C)(C)C(=O)O)cc21	259	3.5
C#Cc1cc(-c2cccc(OCc3ccc(C#N)cc3F)n2)ccc1Cc1nc2ccc(C(=O)O)cc2n1CCOC	10.8	7.17
CC(C)(CC#N)Cn1c(Cc2ccc(-c3cccc(OCc4ccc(C#N)cc4F)n3)cc2F)nc2ccc(C(=O)O)cc21	4.03	6.33
COCC(C1CC1)n1c(Cc2ccc(-c3cccc(OCc4ccc(C#N)cc4F)n3)cc2F)nc2ccc(C(=O)O)cc21 (centres unmarked)	609	
COCCn1cncc1Cn1c(Cc2ccc(-c3cccc(OCc4ccc(C#N)cc4F)n3)cc2F)nc2ccc(C(=O)O)cc21	1.1	4.5
N#Cc1ccc(COc2cccc(-c3cc(F)c(Cc4nc5ccc(C(=O)O)cc5n4C[C@@H]4CCO4)c(F)c3)n2)c(F)c1	0.51	3.25
N#Cc1ccc(COc2cccc(-c3ccc(Cc4nc5ccc(C(=O)O)cc5n4CC4(C(F)F)CC4)c(F)c3)n2)c(F)c1	1.94	3.5
